Measured values taken from patent publication US7749984B2, “Computer-based model for identification and characterization of non-competitive inhibitors of nicotinic acetylcholine receptors and related ligand-gated ion channel receptors” (priority 2003, dated 2010).
pKd: −log10 of the molar value.

Chains of the proteins cited; added tags and fusions are not shown. Residues count along the entry.
UniProt P04757, 26-499: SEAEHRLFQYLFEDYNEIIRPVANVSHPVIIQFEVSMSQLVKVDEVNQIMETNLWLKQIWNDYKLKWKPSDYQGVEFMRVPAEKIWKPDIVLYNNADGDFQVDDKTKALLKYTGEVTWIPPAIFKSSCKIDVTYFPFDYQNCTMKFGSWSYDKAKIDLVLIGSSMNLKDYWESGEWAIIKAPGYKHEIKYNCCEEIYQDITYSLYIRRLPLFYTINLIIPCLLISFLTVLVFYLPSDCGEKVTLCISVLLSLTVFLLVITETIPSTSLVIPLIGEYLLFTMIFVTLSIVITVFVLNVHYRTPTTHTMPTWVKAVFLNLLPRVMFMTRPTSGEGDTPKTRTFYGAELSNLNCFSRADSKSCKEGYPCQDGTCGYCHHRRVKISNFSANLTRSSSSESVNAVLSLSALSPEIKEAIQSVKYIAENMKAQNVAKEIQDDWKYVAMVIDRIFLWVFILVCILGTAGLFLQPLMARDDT
UniProt P12392, 21-495: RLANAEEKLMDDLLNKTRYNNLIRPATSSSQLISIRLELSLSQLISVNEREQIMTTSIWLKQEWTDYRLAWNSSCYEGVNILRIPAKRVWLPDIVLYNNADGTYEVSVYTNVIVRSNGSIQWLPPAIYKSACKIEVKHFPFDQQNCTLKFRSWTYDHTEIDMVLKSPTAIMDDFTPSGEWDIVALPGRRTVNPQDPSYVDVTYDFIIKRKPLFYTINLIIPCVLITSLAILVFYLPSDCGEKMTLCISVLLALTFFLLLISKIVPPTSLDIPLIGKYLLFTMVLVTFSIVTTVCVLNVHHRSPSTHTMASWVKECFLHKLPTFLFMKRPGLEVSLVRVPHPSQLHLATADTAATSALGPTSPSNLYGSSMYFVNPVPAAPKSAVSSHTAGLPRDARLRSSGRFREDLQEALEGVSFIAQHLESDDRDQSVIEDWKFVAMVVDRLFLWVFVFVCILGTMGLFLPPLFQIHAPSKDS

Target: α3β4 nAChR (Rattus norvegicus, UniProt P04757+P12392)
Assay: biochemical
Format: binding
Set-up: host or cells: HEK293 (KXα3β4R2)
Conditions: log K chromatographic equilibrium constant

Structure (SMILES): CNC1(C)C2CCC(C2)C1(C)C (stereo not shown) [mecamylamine]
- pKd: 6.83
